Test results from PubChem BioAssay AID504323 (Broad Institute, 2011).
This is a selection; strong and weak results do not stand in their true shares. Active and inactive are the calls of the source.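 How the source made its calls: active means compounds lowering the viability signal whose fitted AC50 is no more than ten times their top tested dose; inconclusive means flat fit with a 30 to 70% drop, or poor fit; inactive means the rest.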

Test: toxicity in U2OS HRE-luc cells, zinc medium, dose response, cytotoxicity control for HIF pathway activator project, zinc-supplemented medium, dry powder (AID 504323)
Conditions: U2OS HRE-luciferase cells, viability toxicity, luminescence; at 38 µM (top of the series)
Procedure, shortened: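 Material – U2OS 3×HRE-luciferase reporter cells · Quantity – 6,000 cells/well · Medium – 50 µM zinc sulfate final · Doses – Eight-point compound series with threefold dilution steps · Timing – 24 h attachment, then 24 h compound exposure at 37 °C · Technique – CellTiter-Glo luminescence for cell viability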

O=c1[nH]c2ccccc2n1C1CCN(Cc2ccc(O)c3ncccc23)CC1
activity change, negative = toxicity: inactive: -7.17%
